Source: patent US20090099157A1, “TETRAHYDRO-PYRAZOLO-PYRIDINE THIOETHER MODULATORS OF CATHEPSIN S” (priority 2007, published 2009)

By UniProt entry, the sequences of proteins in these tests, tags left out. Residues count along the entry.
UniProt P25774, 115-331: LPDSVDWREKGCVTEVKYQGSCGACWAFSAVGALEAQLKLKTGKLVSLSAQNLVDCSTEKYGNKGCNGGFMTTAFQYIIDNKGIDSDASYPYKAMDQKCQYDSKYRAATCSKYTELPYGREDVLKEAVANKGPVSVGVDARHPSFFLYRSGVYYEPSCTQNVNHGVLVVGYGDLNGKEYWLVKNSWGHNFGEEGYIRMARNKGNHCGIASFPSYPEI

Biological target: Recombinant human cathepsin S (CatS) (Homo sapiens, UniProt P25774)
Assay: biochemical

Compound	IC50 [nM]
CS(=O)(=O)N1CCc2c(c(-c3ccc(Cl)c(SCCCCl)c3)nn2CCCN2CCOCC2)C1 [Example 139, 3-[4-Chloro-3-(3-chloro-propylsulfanyl)-phenyl]-5-methanesulfonyl-1-(3-morpholin-4-yl-propyl)-4,5,6,7-tetrahydro-1H-pyrazolo[4,3-c]pyridine]	630
O=C(CSc1cc(-c2nn(CC(O)CN3CCCCC3)c3c2CNCC3)ccc1C(F)(F)F)N1CCOCC1 (stereo not shown) [Example 265, 1-(3-{3-[(2-Morpholin-4-yl-2-oxoethyl)sulfanyl]-4-(trifluoromethyl)phenyl}-4,5,6,7-tetrahydro-1H-pyrazolo[4,3-c]pyridin-1-yl)-3-piperidin-1-ylpropan-2-ol]	4400
CS(=O)(=O)N1CCc2c(c(-c3ccc(C(F)(F)F)c(SCCNC(=O)C4CCNCC4)c3)nn2CC(O)CN2CCC(N3CCCC3=O)CC2)C1 (stereo not shown) [Example 127, Piperidine-4-carboxylic acid {2-[5-(1-{2-hydroxy-3-[4-(2-oxo-pyrrolidin-1-yl)-piperidin-1-yl]-propyl}-5-methanesulfonyl-4,5,6,7-tetrahydro-1H-pyrazolo[4,3-c]pyridin-3-yl)-2-trifluoromethyl-phenylsulfanyl]-ethyl}-amide]	850
CS(=O)(=O)N1CCc2c(c(-c3ccc(C(F)(F)F)c(SCC(=O)NCc4ccccc4)c3)nn2CC(O)CN2CCC(N3CCCC3=O)CC2)C1 (stereo not shown) [Example 73, N-Benzyl-2-[5-(1-{2-hydroxy-3-[4-(2-oxo-pyrrolidin-1-yl)-piperidin-1-yl]-propyl}-5-methanesulfonyl-4,5,6,7-tetrahydro-1H-pyrazolo[4,3-c]pyridin-3-yl)-2-trifluoromethyl-phenylsulfanyl]-acetamide]	1030
OC(CN1CCC(c2ccccn2)CC1)Cn1nc(-c2ccc(C(F)(F)F)c(SCCN3CCC(F)CC3)c2)c2c1CCNC2 (stereo not shown) [Example 232, 1-{3-[3-{[2-(4-Fluoropiperidin-1-yl)ethyl]sulfanyl}-4-(trifluoromethyl)phenyl]-4,5,6,7-tetrahydro-1H-pyrazolo[4,3-c]pyridin-1-yl}-3-(4-pyridin-2-ylpiperidin-1-yl)propan-2-ol]	160
C[C@@H]1CN(CCSc2cc(-c3nn(CCCN4CCCCC4)c4c3CN(S(C)(=O)=O)CC4)ccc2C(F)(F)F)C[C@@H](C)O1 [Example 146, 3-[3-({2-[(2R,6R)-2,6-Dimethylmorpholin-4-yl]ethyl}sulfanyl)-4-(trifluoromethyl)phenyl]-5-(methylsulfonyl)-1-(3-piperidin-1-ylpropyl)-4,5,6,7-tetrahydro-1H-pyrazolo[4,3-c]pyridine]	420
CS(=O)(=O)N1CCc2c(c(-c3ccc(C(F)(F)F)c(SCC(=O)N4CCc5ccccc5C4)c3)nn2CCCN2CCC(N3CCCC3=O)CC2)C1 [Example 98, 1-{1-[3-(3-{3-[2-(3,4-Dihydro-1H-isoquinolin-2-yl)-2-oxo-ethylsulfanyl]-4-trifluoromethyl-phenyl}-5-methanesulfonyl-4,5,6,7-tetrahydro-pyrazolo[4,3-c]pyridin-1-yl)-propyl]-piperidin-4-yl}-pyrrolidin-2-one]	190
O=C(CSc1cc(-c2nn(CC(O)CN3CCC(c4ccccn4)CC3)c3c2CN(C(=O)CO)CC3)ccc1C(F)(F)F)N1CCOCC1 (stereo not shown) [Example 274, 1-[5-(Hydroxyacetyl)-3-{3-[(2-morpholin-4-yl-2-oxoethyl)sulfanyl]-4-(trifluoromethyl)phenyl}-4,5,6,7-tetrahydro-1H-pyrazolo[4,3-c]pyridin-1-yl]-3-(4-pyridin-2-ylpiperidin-1-yl)propan-2-ol]	10
CS(=O)(=O)N1CCc2c(c(-c3ccc(C(F)(F)F)c(SCC(=O)NCc4ccccc4)c3)nn2CCCN2CCC(N3CCCC3=O)CC2)C1 [Example 102, N-Benzyl-2-[5-(5-methanesulfonyl-1-{3-[4-(2-oxo-pyrrolidin-1-yl)-piperidin-1-yl]-propyl}-4,5,6,7-tetrahydro-1H-pyrazolo[4,3-c]pyridin-3-yl)-2-trifluoromethyl-phenylsulfanyl]-acetamide]	370

Second part, the compound after the results:

IC50 [nM]	Compound
95	N#Cc1ccc(C2CCN(CC(O)Cn3nc(-c4ccc(C(F)(F)F)c(SCCN5CCCCC5)c4)c4c3CCNC4)CC2)cc1 (stereo not shown) [Example 427, 4-{1-[2-Hydroxy-3-(3-{3-[(2-piperidin-1-ylethyl)sulfanyl]-4-(trifluoromethyl)phenyl}-4,5,6,7-tetrahydro-1H-pyrazolo[4,3-c]pyridin-1-yl)propyl]piperidin-4-yl}benzonitrile]
10	CN(C)c1ccc2c(n1)n(C1CCN(CC(O)Cn3nc(-c4ccc(C(F)(F)F)c(SCC(=O)N5CC[C@H](O)C5)c4)c4c3CCN(S(C)(=O)=O)C4)CC1)c(=O)n2C (stereo partly drawn) [Example 894, 5-(Dimethylamino)-3-[1-(2-hydroxy-3-{3-[3-({2-[(3S)-3-hydroxypyrrolidin-1-yl]-2-oxoethyl}sulfanyl)-4-(trifluoromethyl)phenyl]-5-(methylsulfonyl)-4,5,6,7-tetrahydro-1H-pyrazolo[4,3-c]pyridin-1-yl}propyl)piperidin-4-yl]-1-methyl-1,3-dihydro-2H-imidazo[4,5-b]pyridin-2-one]
200	O=C(c1nc[nH]n1)N1CCc2c(c(-c3ccc(C(F)(F)F)c(SCCN4CCC(F)CC4)c3)nn2C[C@@H](O)CN2CCCCC2)C1 [Example 494, (2S)-1-{3-[3-{[2-(4-Fluoropiperidin-1-yl)ethyl]sulfanyl}-4-(trifluoromethyl)phenyl]-5-(1H-1,2,4-triazol-3-ylcarbonyl)-4,5,6,7-tetrahydro-1H-pyrazolo[4,3-c]pyridin-1-yl}-3-piperidin-1-ylpropan-2-ol]
80	Cc1noc(C2CCN(CC(O)Cn3nc(-c4ccc(C(F)(F)F)c(SCCN5CCOCC5)c4)c4c3CCN(S(C)(=O)=O)C4)CC2)n1 (stereo not shown) [Example 681, 1-[4-(3-Methyl-1,2,4-oxadiazol-5-yl)piperidin-1-yl]-3-[5-(methylsulfonyl)-3-{3-[(2-morpholin-4-ylethyl)sulfanyl]-4-(trifluoromethyl)phenyl}-4,5,6,7-tetrahydro-1H-pyrazolo[4,3-c]pyridin-1-yl]propan-2-ol]
340	CS(=O)(=O)N1CCc2c(c(-c3ccc(C(F)(F)F)c(SCCN4CCC(F)CC4)c3)nn2CC(O)CN2CCC[C@H](C(=O)O)C2)C1 (stereo partly drawn) [Example 611, (3S)-1-(3-{3-[3-{[2-(4-Fluoropiperidin-1-yl)ethyl]sulfanyl}-4-(trifluoromethyl)phenyl]-5-(methylsulfonyl)-4,5,6,7-tetrahydro-1H-pyrazolo[4,3-c]pyridin-1-yl}-2-hydroxypropyl)piperidine-3-carboxylic acid]
170	CS(=O)(=O)N1CCc2c(c(-c3ccc(C(F)(F)F)c(SCCN4CCC(F)CC4)c3)nn2C[C@@H](O)CN2CCC(F)CC2)C1 [Example 503, (2S)-1-(4-Fluoropiperidin-1-yl)-3-{3-[3-{[2-(4-fluoropiperidin-1-yl)ethyl]sulfanyl}-4-(trifluoromethyl)phenyl]-5-(methylsulfonyl)-4,5,6,7-tetrahydro-1H-pyrazolo[4,3-c]pyridin-1-yl}propan-2-ol]
230	COc1ccc(C2CCN(C[C@H](O)Cn3nc(-c4ccc(C(F)(F)F)c(SCCN5CCC(F)CC5)c4)c4c3CCNC4)CC2)cc1 [Example 564, (2S)-1-{3-[3-{[2-(4-Fluoropiperidin-1-yl)ethyl]sulfanyl}-4-(trifluoromethyl)phenyl]-4,5,6,7-tetrahydro-1H-pyrazolo[4,3-c]pyridin-1-yl}-3-{4-[4-(methyloxy)phenyl]piperidin-1-yl}propan-2-ol]
15	CS(=O)(=O)N1CCc2c(c(-c3ccc(C(F)(F)F)c(SCCN4CCCCC4)c3)nn2CC(O)CN2CCN(c3ccccc3O)CC2)C1 (stereo not shown) [Example 718, 2-(4-{2-Hydroxy-3-[5-(methylsulfonyl)-3-{3-[(2-piperidin-1-ylethyl)sulfanyl]-4-(trifluoromethyl)phenyl}-4,5,6,7-tetrahydro-1H-pyrazolo[4,3-c]pyridin-1-yl]propyl}piperazin-1-yl)phenol]
540	CS(=O)(=O)N1CCc2c(c(-c3ccc(C(F)(F)F)c(SCCN4CCOCC4)c3)nn2CC(O)CN2CCC(F)(F)CC2)C1 (stereo not shown) [Example 517, 1-(4,4-Difluoropiperidin-1-yl)-3-[5-(methylsulfonyl)-3-{3-[(2-morpholin-4-ylethyl)sulfanyl]-4-(trifluoromethyl)phenyl}-4,5,6,7-tetrahydro-1H-pyrazolo[4,3-c]pyridin-1-yl]propan-2-ol]
140	CCOC(=O)NC1CCN(CC(O)Cn2nc(-c3ccc(C(F)(F)F)c(SCCN4CCOCC4)c3)c3c2CCN(S(C)(=O)=O)C3)CC1 (stereo not shown) [Example 698, Ethyl (1-{2-hydroxy-3-[5-(methylsulfonyl)-3-{3-[(2-morpholin-4-ylethyl)sulfanyl]-4-(trifluoromethyl)phenyl}-4,5,6,7-tetrahydro-1H-pyrazolo[4,3-c]pyridin-1-yl]propyl}piperidin-4-yl)carbamate]
35	CC(=O)NC1CCN(C[C@H](O)Cn2nc(-c3ccc(C(F)(F)F)c(SCCN4CCC5CCCCC5C4)c3)c3c2CCN(S(C)(=O)=O)C3)CC1 (stereo partly drawn) [Example 796, N-{1-[(2S)-2-Hydroxy-3-{5-(methylsulfonyl)-3-[3-{[2-(octahydroisoquinolin-2(1H)-yl)ethyl]sulfanyl}-4-(trifluoromethyl)phenyl]-4,5,6,7-tetrahydro-1H-pyrazolo[4,3-c]pyridin-1-yl}propyl]piperidin-4-yl}acetamide]
180	CC1C(=O)NCCN1CCSc1cc(-c2nn(CC(O)CN3CCC(C(=O)N4CCCC4)CC3)c3c2CN(S(C)(=O)=O)CC3)ccc1C(F)(F)F (stereo not shown) [Example 847, 4-[2-({5-[1-{2-Hydroxy-3-[4-(pyrrolidin-1-ylcarbonyl)piperidin-1-yl]propyl}-5-(methylsulfonyl)-4,5,6,7-tetrahydro-1H-pyrazolo[4,3-c]pyridin-3-yl]-2-(trifluoromethyl)phenyl}sulfanyl)ethyl]-3-methylpiperazin-2-one]
20	COc1ccccc1C1CCN(CC(O)Cn2nc(-c3ccc(C(F)(F)F)c(SCCN4CCC(O)CC4)c3)c3c2CCN(S(C)(=O)=O)C3)CC1 (stereo not shown) [Example 834, 1-[2-({5-[1-(2-Hydroxy-3-{4-[2-(methyloxy)phenyl]piperidin-1-yl}propyl)-5-(methylsulfonyl)-4,5,6,7-tetrahydro-1H-pyrazolo[4,3-c]pyridin-3-yl]-2-(trifluoromethyl)phenyl}sulfanyl)ethyl]piperidin-4-ol]
